Assay results taken from patent EP4847008A1, “COMPOSITION FOR PREVENTING HAIR LOSS, PROMOTING HAIR GROWTH OR INCREASING HAIR DENSITY” (dated 2026).

Sequences of proteins named here, by UniProt entry; tags and fusion partners are left off.
UniProt P31214, whole entry: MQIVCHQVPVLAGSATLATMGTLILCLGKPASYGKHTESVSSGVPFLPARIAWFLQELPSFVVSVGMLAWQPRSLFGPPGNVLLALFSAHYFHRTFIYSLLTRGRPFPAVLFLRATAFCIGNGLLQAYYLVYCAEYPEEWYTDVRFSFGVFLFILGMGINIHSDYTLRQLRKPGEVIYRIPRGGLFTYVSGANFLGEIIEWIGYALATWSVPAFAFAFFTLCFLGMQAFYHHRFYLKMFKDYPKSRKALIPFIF

Target: Type II 5α-reductase (Rattus norvegicus, UniProt P31214)
Assay: Anti-hair loss efficacy test - 5α-reductase inhibition rate (testosterone peak area by HPLC)

- 5α-reductase activity inhibition rate (%) (experiments at Guangzhou Chn-Alternative Biotechnology, finasteride solution 1 µmol/L in absolute ethanol): 79.79±0.33 %
- 5α-reductase activity inhibition rate (%) (experiments at SINOLIGHT SLSAC, positive control, 1 µM finasteride solution, 37 °C, 30 min): 72.21%
Structure (SMILES): CC(C)(C)NC(=O)[C@H]1CC[C@H]2[C@@H]3CC[C@H]4NC(=O)C=C[C@]4(C)[C@H]3CC[C@]12C
